Legend:
His6-TEV-PPARγ-(234-505) = His6-TEV-PPARγ-(234-505) (Homo sapiens, UniProt P37231); experiment: TR-FRET Assay to Measure Co-R Peptide Recruitment to PPARγ; conditions: read-out: TR-FRET i-Ag, Co-R peptide (SMRT-ID2) recruitment, top final concentration 20 μM
UM-UC-9 engineered cells = experiment: Cell proliferation / short-term viability assay, CellTiter-Glo 144 h; conditions: read-out: CTGlo 144 h UMUC9.5, G150

Sequences of proteins named here, by UniProt entry; tags and fusion partners are left off. Residues count along the entry.
UniProt P37231, 234-505 limits assumed: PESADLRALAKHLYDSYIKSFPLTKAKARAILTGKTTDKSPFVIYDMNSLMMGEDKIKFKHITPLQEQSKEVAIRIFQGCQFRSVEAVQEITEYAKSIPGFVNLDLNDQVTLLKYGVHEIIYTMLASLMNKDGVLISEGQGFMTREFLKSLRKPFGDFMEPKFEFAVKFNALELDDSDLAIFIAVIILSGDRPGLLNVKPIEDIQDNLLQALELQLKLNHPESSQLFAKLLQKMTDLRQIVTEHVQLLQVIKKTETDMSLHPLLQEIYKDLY

Row | AC50 (His6-TEV-PPARγ-(234-505)) [µM] | Structure (SMILES) | IC50 (UM-UC-9 engineered cells) [µM]
1 | 0.0179 | COc1cc(-c2cc(C(=O)N3CC[C@H](C(=O)NC4CCN(C5COC56CCC6)C4)CC34CC4)n[nH]2)c(F)cn1 (single isomer, unassigned) [Example 464-A] | 0.199
2 | 0.0118 | COc1cc(-c2cc(C(=O)N3CC[C@H](C(=O)NC4CCN(C5COC56CCC6)C4)CC34CC4)n[nH]2)c(F)cn1 (single isomer, unassigned) [Example 464-B] | 0.124
3 | 0.0104 | COc1cc(-c2cc(C(=O)N3CC[C@H](C(=O)NC4CCN(C5COC56CCC6)C4)CC34CC4)n[nH]2)c(F)cn1 (single isomer, unassigned) [Example 464-C] | 0.0516
4 | 0.0068 | COc1cc(-c2cc(C(=O)N3CC[C@H](C(=O)Nc4cnn5ccc(C6CC6C#N)nc45)CC34CC4)n[nH]2)c(F)cn1 (single isomer, unassigned) [Example 466-A] | 0.061
5 | 0.004 | COc1cc(-c2cc(C(=O)N3CC[C@H](C(=O)Nc4cnn5ccc(C6CC6C#N)nc45)CC34CC4)n[nH]2)c(F)cn1 (single isomer, unassigned) [Example 466-B] | 0.0529
6 | 0.496 | COc1cc(-c2cc(C(=O)N3CCC(C(=O)Nc4c(F)ccc5ccnn45)CC34CC4)n[nH]2)c(F)cn1 (single isomer, unassigned) [Example 468-A] | 5.03
7 | 0.0111 | COc1cc(-c2cc(C(=O)N3CCC(C(=O)Nc4c(F)ccc5ccnn45)CC34CC4)n[nH]2)c(F)cn1 (single isomer, unassigned) [Example 468-B] | 0.0608
8 | 0.0926 | COc1cc(-c2cc(C(=O)N3CC[C@H](C(=O)NCc4ncc(N5CCNC6CC65)cn4)CC34CC4)n[nH]2)c(F)cn1 (single isomer, unassigned) [Example 469-A] | 7.77
9 | 0.115 | COc1cc(-c2cc(C(=O)N3CC[C@H](C(=O)NCc4ncc(N5CCNC6CC65)cn4)CC34CC4)n[nH]2)c(F)cn1 (single isomer, unassigned) [Example 469-B] | 9.9
10 | 0.0874 | COc1cc(-c2cc(C(=O)N3CC[C@H](C(=O)NC4CN(CC5(O)CC5)CC4(F)F)CC34CC4)n[nH]2)c(F)cn1 (single isomer, unassigned) [Example 470-A] | 0.813
11 | 0.0211 | COc1cc(-c2cc(C(=O)N3CC[C@H](C(=O)NC4CN(CC5(O)CC5)CC4(F)F)CC34CC4)n[nH]2)c(F)cn1 (single isomer, unassigned) [Example 470-B] | 0.216
12 | 0.0115 | COc1cc(-c2cc(C(=O)N3CC[C@H](C(=O)NC4CCN(c5ncc(C#N)cn5)C4)CC34CC4)n[nH]2)c(F)cn1 (single isomer, unassigned) [Example 472-A] | 0.0411
13 | 0.0219 | COc1cc(-c2cc(C(=O)N3CC[C@H](C(=O)NC4CCN(c5ncc(C#N)cn5)C4)CC34CC4)n[nH]2)c(F)cn1 (single isomer, unassigned) [Example 472-B] | 1.37
14 | 0.04 | CC(O)c1cc(-c2cc(C(=O)N3CCC(C(=O)NCc4ncc(F)cc4Cl)CC34CC4)n[nH]2)c(F)cn1 (single isomer, unassigned) [Example 478-A] | 0.291
15 | 0.056 | CC(O)c1cc(-c2cc(C(=O)N3CCC(C(=O)NCc4ncc(F)cc4Cl)CC34CC4)n[nH]2)c(F)cn1 (single isomer, unassigned) [Example 478-B] | 0.675
16 | 3.06 | CC(O)c1cc(-c2cc(C(=O)N3CCC(C(=O)NCc4ncc(F)cc4Cl)CC34CC4)n[nH]2)c(F)cn1 (single isomer, unassigned) [Example 478-C] | > 10

Row | AC50 (His6-TEV-PPARγ-(234-505)) [µM] | Structure (SMILES) | IC50 (UM-UC-9 engineered cells) [µM]
17 | 15.3 | CC(O)c1cc(-c2cc(C(=O)N3CCC(C(=O)NCc4ncc(F)cc4Cl)CC34CC4)n[nH]2)c(F)cn1 (single isomer, unassigned) [Example 478-D] | > 10
18 | 0.885 | COc1cc(-c2cc(C(=O)N3CC[C@H](C(=O)NC4CCCn5ccnc54)CC34CC4)n[nH]2)c(F)cn1 (single isomer, unassigned) [Example 479-A] | 3.16
19 | 0.0953 | COc1cc(-c2cc(C(=O)N3CC[C@H](C(=O)NC4CCCn5ccnc54)CC34CC4)n[nH]2)c(F)cn1 (single isomer, unassigned) [Example 479-B] | 1.07
20 | 2.31 | O=C(NCc1ncc(F)cc1Cl)C1CCN(C(=O)c2cc(-c3cc(C4CC4)ncc3F)[nH]n2)C2(CC2)C1 (single isomer, unassigned) [Example 480-A] | 5.08
21 | 0.0181 | O=C(NCc1ncc(F)cc1Cl)C1CCN(C(=O)c2cc(-c3cc(C4CC4)ncc3F)[nH]n2)C2(CC2)C1 (single isomer, unassigned) [Example 480-B] | 0.206
22 | 0.171 | COc1cc(-c2cc(C(=O)N3CC[C@H](C(=O)NCc4nccnc4C4CC4CO)CC34CC4)n[nH]2)c(F)cn1 (single isomer, unassigned) [Example 481-A] | 4.41
23 | 0.0457 | COc1cc(-c2cc(C(=O)N3CC[C@H](C(=O)NCc4nccnc4C4CC4CO)CC34CC4)n[nH]2)c(F)cn1 (single isomer, unassigned) [Example 481-B] | 1.17
24 | 0.0015 | COc1cnc(CNC(=O)C2CCN(C(=O)c3cc(-c4cc(C)ncc4F)[nH]n3)C3(CC3)C2)c(Cl)c1 (single isomer, unassigned) [Example 484-A] | 0.0057
25 | 0.0724 | COc1cnc(CNC(=O)C2CCN(C(=O)c3cc(-c4cc(C)ncc4F)[nH]n3)C3(CC3)C2)c(Cl)c1 (single isomer, unassigned) [Example 484-B] | 0.459
26 | 1.06 | COc1cc(-c2cc(C(=O)N3CCC(C(=O)N[C@H]4CC[C@@](O)(C(F)(F)F)CC4)CC34CCC4)n[nH]2)c(F)cn1 (single isomer, unassigned) [Example 486-A] | 0.575
27 | 0.0029 | COc1cc(-c2cc(C(=O)N3CCC(C(=O)N[C@H]4CC[C@@](O)(C(F)(F)F)CC4)CC34CCC4)n[nH]2)c(F)cn1 (single isomer, unassigned) [Example 486-B] | 0.0228
28 | 0.0019 | COc1cc(-c2cc(C(=O)N3CC[C@H](C(=O)NC4CCN(c5ccc(C#N)cn5)C4)CC34CC4)n[nH]2)c(F)cn1 (single isomer, unassigned) [Example 489-A] | 0.0063
29 | 0.006 | COc1cc(-c2cc(C(=O)N3CC[C@H](C(=O)NC4CCN(c5ccc(C#N)cn5)C4)CC34CC4)n[nH]2)c(F)cn1 (single isomer, unassigned) [Example 489-B] | 0.465
30 | 0.0023 | COc1cc(-c2cc(C(=O)N3CC[C@H](C(=O)NC4CN(c5cnc(C)cn5)CC4(F)F)CC34CC4)n[nH]2)c(F)cn1 (single isomer, unassigned) [Example 490-A] | 0.0148
31 | 0.0097 | COc1cc(-c2cc(C(=O)N3CC[C@H](C(=O)NC4CN(c5cnc(C)cn5)CC4(F)F)CC34CC4)n[nH]2)c(F)cn1 (single isomer, unassigned) [Example 490-B] | 0.0778
32 | 1.51 | COc1cc(-c2cc(C(=O)N3CC[C@H](C(=O)NC4CCCn5c(C)nnc54)CC34CC4)n[nH]2)c(F)cn1 (single isomer, unassigned) [Example 492-A] | > 10

From patent US12606541B2, “PPARg modulators and methods of use” (Eisai R&D Management Co., Ltd., priority 2020, dated 2026)
